The IC50 is the concentration that inhibits the measured activity by half. High values mean a need for much substance, low ones inhibition by little substance.

We go through 2 molecules from patent US20070059799A1.

Conditions in all cases: remark: other sources report otherwise
For test [1], the target named is HLA-A*3101 (human).
The target in test [2] is HLA-A*03 (human).
Test [3] addresses HLA-A*6801 (human).

B1: peptide 26.0549 (peptide)
peptide: LLPIFFCLWVY
modifications: not checked
As to B1, in test [1], the IC50 came to 2610 nM.

B2: peptide 1.0215 (peptide)
peptide: TTDLEAYFK
modifications: not checked
With B2, the half-inhibitory concentration (IC50) in test [2] stood at 18300 nM; in test [3], 471 nM.
